{
  "sequences": {"note": "Sequences of proteins named here, by UniProt entry; tags and fusion partners are left off. Residues count along the entry.", "UniProt B2RXH2, 1-337 limits assumed": "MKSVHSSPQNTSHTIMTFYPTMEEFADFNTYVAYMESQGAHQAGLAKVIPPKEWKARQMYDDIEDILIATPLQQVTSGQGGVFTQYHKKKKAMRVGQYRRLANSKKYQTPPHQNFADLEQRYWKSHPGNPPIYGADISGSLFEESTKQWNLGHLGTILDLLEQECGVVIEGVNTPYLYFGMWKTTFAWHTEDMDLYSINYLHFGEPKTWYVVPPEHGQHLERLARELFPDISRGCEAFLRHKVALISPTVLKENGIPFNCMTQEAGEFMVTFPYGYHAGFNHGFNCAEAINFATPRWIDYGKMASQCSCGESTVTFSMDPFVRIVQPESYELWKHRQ"},
  "source": "PubChem BioAssay AID2147",
  "about": "(National Center for Advancing Translational Sciences (NCATS), 2009)",
  "note": "Only a part is listed here, and it is no random draw. Results filed as inconclusive are left out. The source made the active and inactive calls. The call rests on the fitted dose curve; in most records, active means well fitted inhibition curve with a large enough effect (not every such curve was filed as active); inconclusive means small, poorly fitted or top-dose-only effect, or another doubt; inactive means no such curve, though single readings can be large or run the other way.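 Further: 0% = wells with enzyme and -100% = buffer wells without enzyme; nearly all actives have a fitted effect of over 50% in size.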",
  "data": [
    {"molecular_target": "Lysine-specific demethylase 4E (Homo sapiens) (UniProt B2RXH2)", "assay": "qHTS Assay for Inhibitors of Human Jumonji Domain Containing 2E (JMJD2E)", "settings": "JMJD2E catalytic domain, FDH-coupled NADH fluorescence (FDH is formaldehyde dehydrogenase); at 57.1 µM (top of the series)", "values": [
      {"smiles": "CCC(CO)(C(=O)OC1CN2CCC1CC2)c1ccccc1", "note": "(stereo not drawn)", "activity change, negative = inhibition": "inactive: 9.83%"},
      {"smiles": "COc1cc(OC)cc(C(=O)NCC2(N3CCOCC3)CCCCC2)c1", "activity change, negative = inhibition": "inactive: 14.4%"},
      {"smiles": "CCCOc1ccc(C)cc1CN(CCCl)CCCl", "activity change, negative = inhibition": "inactive: -1.29%"},
      {"smiles": "CCOc1ncccc1C(=O)NCC1(N2CCOCC2)CCCCC1", "activity change, negative = inhibition": "inactive: -29.7%"},
      {"smiles": "CC(C)(C)OC(=O)N1CCC(Nc2ccccc2)CC1", "activity change, negative = inhibition": "inactive: 2.79%"},
      {"smiles": "CN(C)c1ccc(C(=O)NCC2(N3CCCCC3)CCCCC2)cc1", "activity change, negative = inhibition": "inactive: 7.13%"},
      {"smiles": "c1ccc(CN2CCC(Nc3ccccc3)CC2)cc1", "activity change, negative = inhibition": "inactive: 2.11%"},
      {"smiles": "N#Cc1ccc(C(=O)NCC2(N3CCCCC3)CCCCC2)cc1", "activity change, negative = inhibition": "inactive: -1.6%"},
      {"smiles": "CCOC(=O)C(CC)C1=NC(C)(C)Cc2ccccc21.O=[N+]([O-])c1cc([N+](=O)[O-])c(O)c([N+](=O)[O-])c1", "note": "(stereo not drawn)", "activity change, negative = inhibition": "inactive: 5.1%"},
      {"smiles": "N/C(=N\\O)c1c(N)no[n+]1[O-]", "activity change, negative = inhibition": "inactive: -0.173%"},
      {"smiles": "O=C(O)c1cccc(Nc2c([N+](=O)[O-])cc([N+](=O)[O-])cc2[N+](=O)[O-])c1", "activity change, negative = inhibition": "inactive: -15.8%"},
      {"smiles": "COc1ccc(C(=O)NCC2(N3CCOCC3)CCCCC2)cc1OC", "activity change, negative = inhibition": "inactive: -1.04%"},
      {"smiles": "O=C(OC1CN2CCC1CC2)c1ccc([N+](=O)[O-])cc1", "note": "(stereo not drawn)", "activity change, negative = inhibition": "inactive: 6.09%"},
      {"smiles": "COc1ccc(CN(CCCl)CCCl)cc1Cl", "activity change, negative = inhibition": "inactive: -3.61%"},
      {"smiles": "CC(C)c1ccc(NC2CCN(C(=O)OC(C)(C)C)CC2)cc1", "activity change, negative = inhibition": "inactive: -13.6%"},
      {"smiles": "CN1CCN(CCOC(=O)C(O)(c2ccccc2)c2ccccc2)CC1", "activity change, negative = inhibition": "inactive: 3.03%"},
      {"smiles": "COc1ccc(NC2CCN(C(=O)OC(C)(C)C)CC2)cc1", "activity change, negative = inhibition": "inactive: -14.6%"},
      {"smiles": "O=C(NCC1(N2CCOCC2)CCCCC1)c1cc(=O)[nH]c2ccccc12", "activity change, negative = inhibition": "inactive: -2.74%"},
      {"smiles": "O=C(NCC1(N2CCCCC2)CCCCC1)c1cccc([N+](=O)[O-])c1", "activity change, negative = inhibition": "inactive: 0.803%"},
      {"smiles": "N#CC1(Nc2ccccc2)CCN(CCc2ccccc2)CC1", "activity change, negative = inhibition": "inactive: 4.38%"},
      {"smiles": "Cc1ccc(OCC(C)C)c(CN(CCCl)CCCl)c1", "activity change, negative = inhibition": "inactive: -1.95%"},
      {"smiles": "CCOc1ccc(C)cc1CN(CCCl)CCCl", "activity change, negative = inhibition": "inactive: -2.82%"},
      {"smiles": "COc1ccc(NC2CCN(CCc3ccccc3)CC2)c(OC)c1", "activity change, negative = inhibition": "inactive: -7.72%"},
      {"smiles": "O=C(NCC1(N2CCOCC2)CCCCC1)c1cc2ccccc2o1", "activity change, negative = inhibition": "inactive: -3.81%"},
      {"smiles": "CCOC(=O)N1CCC(Nc2ccc(OC)cc2)CC1", "activity change, negative = inhibition": "inactive: -13.6%"},
      {"smiles": "O=C(OC1CN2CCC1CC2)C1c2ccccc2Oc2ccccc21", "note": "(stereo not drawn)", "activity change, negative = inhibition": "inactive: 3.89%"},
      {"smiles": "N#CC1(Nc2ccccc2)CCN(Cc2ccccc2)CC1", "activity change, negative = inhibition": "inactive: 1.4%"},
      {"smiles": "COc1ccc(C(=O)NCC2(N3CCCCC3)CCCCC2)c(OC)c1OC", "activity change, negative = inhibition": "inactive: -6.8%"}
    ]}
  ]
}
